Earlier results as cited in US20100280046A1, “Methods and Compositions for Treating Prostate Cancer, Benign Prostatic Hypertrophy, Polycystic Ovary Syndrome and Other Conditions” (DIOBEX, INC., priority 2006, published 2010).

Conditions: human, in vivo; cited from earlier work

SMILES: CC(=O)N1CCN(c2ccc(OCC3COC(Cn4ccnc4)(c4ccc(Cl)cc4Cl)O3)cc2)CC1 (racemic) [racemic ketoconazole, 1-acetyl-4-[4-[[2-(2,4-dichlorophenyl)-2-[(1H-imidazol-1-yl)-methyl]-1,3-dioxolan-4-yl]methoxy]phenyl]piperazine]
- effect on QTc interval: does not increase the QTc interval
